Measurements from US7138389B2, “Oral androgen therapy using modulators of testosterone bioavailability” (University of Washington, priority 2004, dated 2006).

Assay: Example 1: open-label single-dose study of oral testosterone 400 mg with finasteride or dutasteride, fasting or fed
Details: in vivo
Description: Study Design. The study was divided into a screening period, a two-week drug exposure period, and a one-month recovery period (see FIG. 1, Experimental Design). At screening, study investigators performed an interview and physical examination; blood samples for measurement of hormones (testosterone, DHT, Estradiol (E2), FSH and LH), routine hematology, chemistry and hepatic function tests were collected. No drugs were administered in the control period.
Subjects will come in on day 5 for a brief blood draw. There was no drug administration on days 5 or 6.
The administration of the testosterone on days 1, 4 and 10 took place while the subjects were eating breakfast with at least 15 grams of fat.
After treatment day 11, subjects underwent a final assessment on day 28–42.

C[C@]12C=CC(=O)N[C@@H]1CC[C@@H]1[C@@H]2CC[C@]2(C)[C@@H](C(=O)Nc3cc(C(F)(F)F)ccc3C(F)(F)F)CC[C@@H]12 [dutasteride, (5′,17β)-N-[2,5-Bis(trifluoromethyl)phenyl]-3-oxo-4-azaandrost-1-ene-17-carboxamide]
lowering serum DHT levels, compared with finasteride: more effective
